# Yeast mating assay 2: variants of the scFv Ab-91

Values reported by Engelhart et al. 2022, doi:10.1038/s41597-022-01779-4 (FLAb copy).

All variants were tested on one target, the spike HR2 peptide PDVDLGDISGINAS (SARS-CoV-2).

Parent scFv Ab-91: VL joined to VH by a 15-residue (Gly4Ser)3 linker. Changes lie in the heavy chain CDRs alone.
VL: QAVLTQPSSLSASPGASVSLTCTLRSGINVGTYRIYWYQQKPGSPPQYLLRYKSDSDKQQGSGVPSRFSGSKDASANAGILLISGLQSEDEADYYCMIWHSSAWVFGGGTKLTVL
VH: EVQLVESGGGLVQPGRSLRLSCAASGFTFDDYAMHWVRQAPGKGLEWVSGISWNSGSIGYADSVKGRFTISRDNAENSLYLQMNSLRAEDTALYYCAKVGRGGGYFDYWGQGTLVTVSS

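The parent was found by panning a naive human phage display library on the peptide. Library AAYL51 holds single substitutions and randomly drawn double and triple substitutions in the CDRs. AlphaSeq pools MATa yeast showing the antibodies with MATalpha yeast showing the peptide. Mating (16 h, 30 °C) was followed by selection of diploids and sequencing of their barcodes. Scores were corrected for input abundance and mapped to Kd with protein pairs of known affinity run in the same pool. Each pool was mated in three replicate cultures.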

Substitutions are numbered in sequence along the VH above, starting at 1 (not Kabat). The Kd shown is the geometric mean over detected replicates; a lower Kd is a better binder. Where no diploid with the target was found in any replicate, the entry reads "nd": below detection, most likely a poor binder, though not proof of it. In this assay the parent's reference entry averaged 72 nM; its copy inside this library read 7.5 nM. As a blank, each scFv also met three strains without target: over library AAYL51, 21% of these pairings were detected, typically at 34 µM and seldom below 1.8 µM.

The variant H35N+N54T+G102E showed nd (0 of 3 replicates).
The variant D30P+D31L+Y108N showed 5.5 nM (3 of 3 replicates).
The variant F29T+W53C+N54G showed nd (0 of 3 replicates).
The variant S57M+F106A+Y108P showed nd (0 of 3 replicates).
The variant T28P+I58P+S63P showed 150 µM (3 of 3 replicates).
The variant G56K+D62F+D107V showed nd (0 of 3 replicates).
The variant I51P+G59E+V64H showed 450 µM (1 of 3 replicates).
The variant H35G+N54M+G102Q showed 1.3 µM (1 of 3 replicates).
The variant Y32T+S52I+V64T showed 330 µM (3 of 3 replicates).
The variant A33Y+M34C+I51Y showed 1.7 mM (2 of 3 replicates).
The variant G59K+G102V+G104E showed nd (0 of 3 replicates).
The variant T28W+G56D+K65E showed 4.8 nM (3 of 3 replicates).
The variant D31Q+H35S+N54I showed nd (0 of 3 replicates).
The variant G102M+Y105Q+D107F showed 31 µM (1 of 3 replicates).
The variant R101T+F106M showed 430 µM (2 of 3 replicates).

Continued, with the values leading:

37 µM (1 of 3 replicates): T28K+G102T+F106P.
23 µM (1 of 3 replicates): A61F+G102Q.
nd (0 of 3 replicates): G50C+W53S+V64K.
170 µM (1 of 3 replicates): M34K+S55D+Y105M.
nd (0 of 3 replicates): F29E+D30C+G50D.
86 µM (1 of 3 replicates): I51P+I58L+G102V.
3.8 µM (1 of 3 replicates): G50S+A61P+Y108W.
37 µM (2 of 3 replicates): G59R+V99Y+D107Q.
8.1 µM (1 of 3 replicates): S52R+G59P+K65D.
nd (0 of 3 replicates): M34W+I58M+V99F.
530 µM (3 of 3 replicates): A61T+K65C+F106D.
540 nM (3 of 3 replicates): D30A+D31E+S55N.
130 nM (3 of 3 replicates): G56N+S57T+S63M.
34 µM (1 of 3 replicates): D31L+Y32G+Y60K.
57 µM (1 of 3 replicates): G50N+W53S+D62M.